These are literature values, as cited in patent US12150928B2, “Methods of treating sarin exposure with tetrahydrocannabinol and cannabidiol combinations” (dated 2024).

The conditions of data set [1]: in the absence of OP intoxication.
For data set [2] the following is noted: aqueous media, pH values ranging from 1.2 to 7.0.

Regarding `CN1[C@@H]2CC[C@H]1C[C@@H](OC(=O)C(CO)c1ccccc1)C2` (stereo partly drawn), in data set [1], the “dose causing severe poisoning” value is 2 mg and the fatal dose is recorded as 100 mg. As to `CCCCCCC(C)(C)c1cc(O)c2c(c1)OC(C)(C)[C@@H]1CCC(=O)C[C@@H]21` (racemic), in data set [2], the solubility result is “less than 0.5 mg/L”.
